Biological target: T1, HCMV pp65 peptide on HLA-B*07:02 (human)
T1 peptide: TPRVTGGGAM
Assay: multimer staining

B1: HBD4.1.S9-3.A1 (SEQ0711 and SEQ0712) (TCR, V domains shown)
Valpha: TQLLEQSPQFLSIQEGENLTVYCNSSSVFSSLQWYRQEPGEGPVLLVTVVTGGEVKKLKRLTFQFGDARKDSSLHITAAQPGDTGLYLCAGARGGFKTIFGAGTRLFVKA
Vbeta: EAQVTQNPRYLITVTGKKLTVTCSQNMNHEYMSWYRQDPGLGLRQIYYSMNVEVTDKGDVPEGYKVSRKEKRNFPLILESPSPNQTSLYFCASSLSPSTGNYGYTFGSGTRLTVV
- binding result: recognises

— patent publication US20200231974A1 (published 2020)
